# Results: patent publication US4380535A, “Enkephalin degrading enzyme inhibitors” (priority 1981, dated 1983)
# System: opiate receptor
# Assay: opiate receptor affinity, 3H-naloxone displacement in rat brain homogenate (modified Chang)
# Format: binding
# Conditions: 3H-naloxone displacement (ID50) relative to morphine, with NaCl
structure (smiles),measurement,value
"CN1CC[C@]23c4c5ccc(O)c4O[C@H]2[C@@H](O)C=C[C@H]3[C@H]1C5 [morphine, reference compound]",relative displacement potency as compared to morphine (1),1
